Results as given in ChEMBL document CHEMBL3297707, “Dual protonophore-chitinase inhibitors dramatically affect O. volvulus molting” (J Med Chem, 2014).

Test system: Plasmodium falciparum
Test: Inhibition of Plasmodium falciparum chitinase using 20 uM 4-methylumbelliferyl-N,N',N''-beta-chitotrioside as substrate at 10 uM after 10 mins by microplate reader analysis

Compound: O=C(Nc1ccc(Oc2ccc(Cl)cc2)cc1)c1cc(I)cc(I)c1O
- inhibition: inactive

Active and inactive are the calls of the source. No cut-off for these calls is given here.
